Measurements as given in patent publication US20100022542A1, “COMPOUNDS EXHIBITING THROMBOPOIETIN RECEPTOR AGONISM” (Shionogi & Co., Ltd., priority 2000, published 2010).

Sequences of proteins named here, by UniProt entry; tags and fusion partners are left off. Residues count along the entry.
UniProt P40238, 26-635 limits assumed: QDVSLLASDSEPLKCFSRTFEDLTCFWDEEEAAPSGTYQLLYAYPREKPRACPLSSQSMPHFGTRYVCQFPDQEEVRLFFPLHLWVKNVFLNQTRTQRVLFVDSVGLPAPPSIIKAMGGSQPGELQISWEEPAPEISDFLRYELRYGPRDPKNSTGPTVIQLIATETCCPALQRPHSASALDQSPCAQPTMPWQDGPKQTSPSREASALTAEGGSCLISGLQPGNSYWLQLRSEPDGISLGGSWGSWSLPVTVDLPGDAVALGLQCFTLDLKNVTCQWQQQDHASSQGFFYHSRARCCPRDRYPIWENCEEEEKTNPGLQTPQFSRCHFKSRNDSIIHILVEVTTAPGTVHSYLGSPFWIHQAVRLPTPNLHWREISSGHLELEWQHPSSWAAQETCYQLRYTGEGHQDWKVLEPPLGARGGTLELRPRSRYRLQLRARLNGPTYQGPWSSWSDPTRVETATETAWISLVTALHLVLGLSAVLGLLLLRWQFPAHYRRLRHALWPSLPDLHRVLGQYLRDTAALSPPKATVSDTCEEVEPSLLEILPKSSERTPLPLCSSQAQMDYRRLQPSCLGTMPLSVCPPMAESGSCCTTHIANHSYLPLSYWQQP

Target: human TPO receptor (hTPOR) (Homo sapiens, UniProt P40238)
Assay: Proliferation of TPO dependent BaF/hTPOR cells, WST-1, thrombopoietic activity ED50 (Test Example 3)
Settings: read-out: ED50, 20 h incubation then WST-1 4 h, absorbance at 450 nm
From the text: FIG. 2: The chart represents proliferation of the human TPO dependent cells bearing human TPO receptors by the present invention compound, wherein the x-axis is concentration of the present invention compound, and the y-axis is the absorbance as an indicator of cell proliferation. Open circles indicate a response of human TPO, and closed circles indicate a response of the compound (B-1).
The TPO dependent BaF/hTPOR cell line which was established by introducing human TPO receptor (hTPOR) into BaF-B03 cells according to Collins et al (J. Cell. Physiol., 137:293-298 (1988)) was used to test the thrombopoietic activity of the present compound. The DNA sequences and encoded peptide sequences for human hTPOR have been described by Vigon et al (Proc. Natl. Acad. Sci. USA, 89:5640-5644 (1992)). TPO dose not have any ability to support proliferation of interleukin-3 dependent parental cell line BaF-B03. BAF/hTPOR cells were maintained in RPMI medium and WEHI-3B conditioned medium as a source of murine interleukin-3 (IL-3). These cells were washed and resuspended in RPMI medium without a source of murine IL-3 and seeded into each well of 96-well microtiter plates at a density of 5×10^4 cells per well in the absence or presence of various concentration of hTPO or the present compound. After incubation at 37° C. for 20 hours in the 5% CO2 incubator, 10% WST-1 reagent (Takara Biomedicals, Japan) was added to each wells and the cells were further incubated for 4 hours. Effect of the present compound on the growth of BAF/mTPOR cell line which was established by introducing murine TPO receptor (mTPOR) into BAF-B03 cells is shown in FIG. 3. Table 8 exemplifies the ED50 for tested compounds of the present invention, wherein the ED50 is the half concentration of the concentration showing the maximum thrombopoietic activity.

Row | SMILES | EC50 [µM]
1 | CNC(=O)c1ccc(/C=C(\F)C(=O)Nc2nc(-c3ccc(Cl)c(Cl)c3)cs2)cc1 | 0.403
2 | COCCCNC(=O)/C(C)=C/c1ccc(C(=O)Nc2nc(-c3ccc(Cl)c(Cl)c3)cs2)cc1 | 0.139
3 | C/C(=C\c1ccc(C(=O)Nc2nc(-c3ccc(Cl)c(Cl)c3)cs2)cc1)C(=O)O | 0.066
4 | O=C(/C=C/c1ccc(C(=O)O)cc1)Nc1nc(-c2ccc(Cl)c(Cl)c2)cs1 | 0.077
5 | CCOC(=O)/C(C)=C/c1ccc(C(=O)Nc2nc(-c3cccc(F)c3)cs2)cc1 | 0.864
6 | O=C(Nc1nc(-c2ccc(Cl)c(Cl)c2)cs1)c1ccc(-c2ccnc(C(=O)O)c2)cc1 | 0.465
7 | CCOC(=O)/C(C)=C/c1ccc(C(=O)Nc2nc(-c3ccc(Cl)c(Cl)c3)cs2)cc1 | 0.117
8 | O=C(/C=C/c1ccc(S(=O)(=O)O)cc1)Nc1nc(-c2ccc(Cl)c(Cl)c2)cs1 | 0.26
9 | O=C(O)/C(Cl)=C/c1ccc(C(=O)Nc2nc(-c3cccc(C(F)(F)F)c3F)cs2)s1 | 0.25
10 | CCCCCc1cc(-c2csc(NC(=O)c3ccc(/C=C(\Cl)C(=O)O)cc3)n2)ccc1F | 0.026
11 | CNC(=O)c1ccc(/C=C/C(=O)Nc2nc(-c3ccc(F)c(F)c3)cs2)cc1 | 0.975
12 | CNC(=O)c1ccc(/C=C/C(=O)Nc2nc(-c3ccc(Cl)c(Cl)c3)cs2)cc1 | 0.189
13 | COC(=O)c1ccc(/C=C/C(=O)Nc2nc(-c3ccc(Cl)c(Cl)c3)cs2)cc1 | 0.693
14 | O=C(O)/C(Cl)=C/c1ccc(C(=O)Nc2nc(-c3ccc(C(F)(F)F)c(Br)c3F)cs2)cc1 | 0.805
15 | O=C(O)/C(Cl)=C/c1ccc(C(=O)Nc2nc(-c3cc(Cl)ccc3Cl)cs2)cc1 | 0.178
16 | C/C(=C\c1ccc(C(=O)Nc2nc(-c3ccc(Cl)c(Cl)c3)cs2)cc1)C(=O)NCC(C)C | 0.186
17 | CC(C)(C)NS(=O)(=O)c1ccc(/C=C/C(=O)Nc2nc(-c3ccc(Cl)c(Cl)c3)cs2)cc1 | 0.373
18 | C/C(=C\c1ccc(S(N)(=O)=O)cc1)C(=O)Nc1nc(-c2ccc(Cl)c(Cl)c2)cs1 | 0.475
19 | NS(=O)(=O)c1ccc(/C=C/C(=O)Nc2nc(-c3ccc(Cl)c(Cl)c3)cs2)cc1 | 0.208
20 | C/C(=C\c1ccc(C(=O)Nc2nc(-c3ccc(Cl)c(Cl)c3)cs2)cc1)C(N)=O | 0.081
